{"source": "PubChem BioAssay AID819", "about": "(Columbia University Molecular Screening Center, 2007)", "note": "This is a selection; strong and weak results do not stand in their true shares. Active and inactive are the calls of the source.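 How the source made its calls: active means activation above 40%, about the mean plus 3 SD, also judged a hit on visual image review; inconclusive means activation above 40% but not a hit on visual review; inactive means activation not above 40% and no visual hit.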", "data": [{"test": "enhancers of NFkB p65 translocation in HUVEC – imaging, IL-1B stimulus, high-content imaging, primary screen (AID 819);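 further: percent activation is computed from the nuclear over cytoplasmic p65 intensity ratio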", "conditions": "HUVEC IL-1B NFkB p65 nuclear translocation imaging; at 2 µM; stronger effect = higher value", "values": [{"smiles": "Cc1nn(-c2ccccc2)c2c1P(=O)(N1CCOCC1)N(C)C(c1ccccc1)=N2", "note": "(stereo unspecified)", "activation": "inactive: 17.8%"}, {"smiles": "COc1ccccc1OP(C)(=O)Nc1c(C)cccc1C", "note": "(stereo unspecified)", "activation": "inactive: -1.34%"}, {"smiles": "O=P1(Nc2ncccn2)COc2ccccc2OC1", "activation": "inactive: 5.46%"}, {"smiles": "Cc1ccc(OCC(=O)OC2CN3CCC2CC3)cc1", "note": "(stereo unspecified)", "activation": "inactive: 1.42%"}, {"smiles": "O=P1(Nc2ccc(Br)cn2)COc2ccccc2OC1", "activation": "inactive: 3.48%"}, {"smiles": "O=P1(Nc2ccccn2)COc2ccccc2OC1", "activation": "inactive: 15.9%"}, {"smiles": "Clc1n[nH]nc1-c1nn[nH][15n]1", "activation": "inactive: -0.84%"}, {"smiles": "Cc1nc2ccc3ccccc3c2s1.O=[N+]([O-])c1cc([N+](=O)[O-])c(O)c([N+](=O)[O-])c1", "activation": "inactive: -4.34%"}, {"smiles": "CC1(CBr)Cn2c(nc3ccccc3c2=O)S1", "note": "(stereo unspecified)", "activation": "inactive: -7.47%"}, {"smiles": "Cc1cccc(OCC(=O)OC2CN3CCC2CC3)c1", "note": "(stereo unspecified)", "activation": "inactive: 22.3%"}, {"smiles": "Cc1cc(C)cc(OP(C)(=O)Nc2ccccn2)c1", "note": "(stereo unspecified)", "activation": "inactive: -22.4%"}, {"smiles": "Cc1ccc(C)c(NP(C)(=O)Oc2ccccc2)c1", "note": "(stereo unspecified)", "activation": "inactive: 18%"}, {"smiles": "CCOP1(=S)c2c(C)nn(CCC#N)c2N=C(c2ccccc2F)N1C", "note": "(stereo unspecified)", "activation": "inactive: 2.5%"}, {"smiles": "CCOP1(=S)c2c(C)nn(CCC#N)c2N=C(c2ccc(F)cc2)N1C", "note": "(stereo unspecified)", "activation": "inactive: 1.03%"}, {"smiles": "O=[N+]([O-])c1ccc2c(c1)nnn2O", "activation": "inactive: 0.17%"}, {"smiles": "ClCCSc1nnc(-c2cccnc2)o1", "activation": "inactive: -10.5%"}, {"smiles": "COc1ccc(OP(C)(=O)Nc2cccc(F)c2)cc1", "note": "(stereo unspecified)", "activation": "inactive: 10.8%"}, {"smiles": "CCN(CC)C(=S)SC(NC=O)C(Cl)(Cl)Cl", "note": "(stereo unspecified)", "activation": "inactive: -0.59%"}, {"smiles": "O=C(OC1CN2CCC1CC2)C12CC3CC(CC(C3)C1)C2", "note": "(stereo unspecified)", "activation": "inactive: 19.3%"}, {"smiles": "COP1(=S)c2c(C)nn(CCC#N)c2N=C(c2ccc(F)cc2)N1C", "note": "(stereo unspecified)", "activation": "inactive: -5.21%"}, {"smiles": "CP(=O)(NC(=O)Nc1ccccc1)Oc1ccccc1", "note": "(stereo unspecified)", "activation": "inactive: 2.71%"}, {"smiles": "O=C(COc1ccccc1)OC1CN2CCC1CC2", "note": "(stereo unspecified)", "activation": "inactive: -7.22%"}, {"smiles": "CCC(C)N(CC(C)C)C(=S)SC(NC(C)=O)C(Cl)(Cl)Cl", "note": "(stereo unspecified)", "activation": "inactive: 4.89%"}, {"smiles": "CP(=O)(Nc1ccccn1)Oc1ccc(Cl)cc1", "note": "(stereo unspecified)", "activation": "inactive: 4.32%"}, {"smiles": "CP(=S)(Nn1cnnc1)Oc1ccccc1", "note": "(stereo unspecified)", "activation": "inactive: 8.13%"}, {"smiles": "CP(=O)(OC12CC3CC(CC(C3)C1)C2)OC12CC3CC(CC(C3)C1)C2", "activation": "inactive: 20.3%"}, {"smiles": "CCN(CC)CC(O)COC(=O)C(O)(c1ccccc1)C1CCCCC1", "note": "(stereo unspecified)", "activation": "inactive: -1.37%"}, {"smiles": "CCc1nc2c(n1)c1c(non1O)c1c2no[n+]1[O-]", "activation": "inactive: 13.2%"}, {"smiles": "CP(=O)(Oc1ccccc1)N1CCOC1=O", "note": "(stereo unspecified)", "activation": "inactive: -6.28%"}, {"smiles": "CC(=O)N1C2C3N(C(C)=O)C1C1N(C(C)=O)C(C(N1C(C)=O)N3C(C)=O)N2C(C)=O", "activation": "inactive: -0.5%"}, {"smiles": "O=[N+]([O-])c1cccc2n[nH]nc12", "activation": "inactive: -0.26%"}, {"smiles": "COc1ccccc1OP(C)(=O)Nc1c(C)n(C)n(-c2ccccc2)c1=O", "note": "(stereo unspecified)", "activation": "inactive: 23.1%"}, {"smiles": "CP(=O)(Nc1ccc(Cl)cc1)Oc1ccc(F)cc1", "note": "(stereo unspecified)", "activation": "inactive: 20.9%"}, {"smiles": "CC(C)(C)c1ccc(OP(C)(=O)O)cc1", "activation": "inactive: 3.7%"}, {"smiles": "CC1CCN(C(=O)Oc2c(Cl)cc(Cl)c3cccnc23)CC1", "activation": "inactive: 3.49%"}, {"smiles": "CN1CCCC(OC(=O)C(c2ccccc2)c2ccccc2)C1", "note": "(stereo unspecified)", "activation": "inactive: -7.83%"}, {"smiles": "CN(C)CCOC(=O)C(O)(c1ccccc1)C1CCCC1", "note": "(stereo unspecified)", "activation": "inactive: 5.91%"}, {"smiles": "COc1ccc(OP(C)(=O)Nc2ccccn2)cc1", "note": "(stereo unspecified)", "activation": "inactive: 15.8%"}, {"smiles": "Cc1c2non([O-])c-2c(C)[n+](=O)[n+]1[O-]", "activation": "inactive: 16.9%"}, {"smiles": "Oc1ccccc1CNc1ccccn1", "activation": "inactive: 8.93%"}, {"smiles": "Cc1c(NP(C)(=O)Oc2ccc(C(C)C)cc2)c(=O)n(-c2ccccc2)n1C", "note": "(stereo unspecified)", "activation": "inactive: -3.62%"}, {"smiles": "CC(C)CC(=O)NC(Sc1ccc(Cl)cc1)C(Cl)(Cl)Cl", "note": "(stereo unspecified)", "activation": "inactive: 4.25%"}, {"smiles": "CCc1ccc(OP(C)(=O)O)cc1", "activation": "inactive: 0.99%"}, {"smiles": "COc1ccccc1OP(C)(=O)Nc1ccc(C)cc1C", "note": "(stereo unspecified)", "activation": "inactive: -2.48%"}, {"smiles": "CP(=O)(Nc1ccccn1)Oc1ccccc1", "note": "(stereo unspecified)", "activation": "inactive: 2.76%"}, {"smiles": "COc1ccccc1OP(C)(=O)Nc1ccc(C)c(C)c1", "note": "(stereo unspecified)", "activation": "inactive: 2.05%"}, {"smiles": "CCOP(=O)(Nc1ccccc1)OCC", "activation": "inactive: 3.56%"}, {"smiles": "Cc1nc2ccc3ccccc3c2o1.O=[N+]([O-])c1cc([N+](=O)[O-])c(O)c([N+](=O)[O-])c1", "activation": "active: 41.7%"}, {"smiles": "CCOC(=O)NC(Sc1ccccc1)C(Cl)(Cl)Cl", "note": "(stereo unspecified)", "activation": "inactive: -10.2%"}, {"smiles": "CCC(=O)N1C2C3N(C(=O)CC)C1C1N(C(=O)CC)C(C(N1C(=O)CC)N3C(=O)CC)N2C(=O)CC", "activation": "inactive: 22.5%"}, {"smiles": "CCN(CC)CCCOC(=O)C(O)(c1ccccc1)C1CCCCC1", "note": "(stereo unspecified)", "activation": "inactive: 10.1%"}, {"smiles": "COC(=O)c1cc2c(s1)N=C(c1ccccc1)N(C)P2(=O)N1CCOCC1", "note": "(stereo unspecified)", "activation": "inactive: -7.28%"}, {"smiles": "CP(=O)(Nc1ccccc1)Oc1ccc(F)cc1", "note": "(stereo unspecified)", "activation": "inactive: 17.6%"}, {"smiles": "O=P1(Nc2nc3ccc(Cl)cc3s2)COc2ccccc2O1", "note": "(stereo unspecified)", "activation": "inactive: 17.7%"}, {"smiles": "CP(=O)(Nc1ccccc1F)Oc1ccccc1", "note": "(stereo unspecified)", "activation": "inactive: -9.73%"}, {"smiles": "O=P(Nc1nccs1)(c1ccccc1)c1ccccc1", "activation": "inactive: 6.76%"}, {"smiles": "c1nnnn1CCn1cnnn1", "activation": "inactive: -4.68%"}, {"smiles": "CCOP(C)(=S)SCC(=O)NC(C)(CC)C(=O)O", "note": "(stereo unspecified)", "activation": "inactive: -0.3%"}, {"smiles": "CP(=O)(Nc1ccc2c(c1)OCCO2)Oc1ccccc1", "note": "(stereo unspecified)", "activation": "inactive: 33.2%"}, {"smiles": "CN(C)CCOC(=O)C(O)(c1ccccc1)C1CCCCC1", "note": "(stereo unspecified)", "activation": "inactive: -0.97%"}, {"smiles": "O=C(OC1CN2CCC1CC2)c1cccc(Cl)c1", "note": "(stereo unspecified)", "activation": "inactive: -11.7%"}]}]}
